Measurements taken from patent US10189836B2, “Therapeutic compounds, compositions and methods of use thereof” (Genentech, Inc., priority 2015, dated 2019).

Tested on: JAK1-dependent STAT6 phosphorylation downstream of IL-13 stimulation in BEAS-2B cells

SMILES | IC50
O=C(Cn1cc(Nc2nc3c(N4CC5CCC(C4)N5C(=O)CCC(F)(F)F)cccn3n2)cn1)N1CCC(CN2CCOCC2)CC1 [Example 41, 4,4,4-trifluoro-1-[3-[2-[[1-[2[4-(morpholinomethyl)-1-piperidyl]-2-oxo-ethyl]pyrazol-4-yl]amino]-[1,2,4]triazolo[1,5-a]pyridin-8-yl]-3,8-diazabicyclo[3.2.1]octan-8-yl]butan-1-one] | 0.0514 µM
Cc1ncc(S(=O)(=O)N2C3CCC2CN(c2cccn4nc(Nc5cnn(CC(=O)N6CCN(C)CC6)c5)nc24)C3)s1 [Example 138, 1-(4-methylpiperazin-1-yl)-2-[4-[[8-[8-(2-methylthiazol-5-yl)sulfonyl-3,8-diazabicyclo[3.2.1]octan-3-yl]-[1,2,4]triazolo[1,5-a]pyridin-2-yl]amino]pyrazol-1-yl]ethanone] | 0.027 µM
CN1CCN(C(=O)Cn2cc(Nc3nc4c(N5CC6CCC(C5)N6S(=O)(=O)c5ccc(C#N)cc5)cccn4n3)cn2)CC1 [Example 149, 4-[3-[2-([1-[2-(4-methylpiperazin-1-yl)-2-oxoethyl]-1H-pyrazol-4-yl]amino)-[1,2,4]triazolo[1,5-a]pyridin-8-yl]-3,8-diazabicyclo[3.2.1]octane-8-sulfonyl]benzonitrile] | 0.0345 µM
CN1CCN(C(=O)Cn2cc(Nc3nc4c(N5CC6CCC(C5)N6C(=O)C5CC(F)(F)C5)cccn4n3)cn2)CC1 [Example 46, 2-[4-[[8-[8-(3,3-difluorocyclobutanecarbonyl)-3-yl]-3,8-diazabicyclo[3.2.1]octan-[1,2,4]triazolo[1,5-a]pyridin-2-yl]amino]pyrazol-1-yl]-1-(4-methylpiperazin-1-yl)ethanone] | 0.0738 µM
CN1CCN(C(=O)Cn2cc(Nc3nc4c(N5CC6CCC(C5)N6C(=O)C5C6CC(F)(F)CC65)cccn4n3)cn2)CC1 (stereo not drawn) [Example 49, 2-[4-[[8-[8-(3,3-difluorobicyclo[3.1.0]hexane-6-carbonyl)-3,8-diazabicyclo[3.2.1]octan-3-yl]-[1,2,4]triazolo[1,5-a]pyridin-2-yl]amino]pyrazol-1-yl]-1-(4-methylpiperazin-1-yl)ethanone] | 0.0579 µM
CN1CCN(C(=O)Cn2cc(Nc3nc4c(N5CC6CCC5CN6C(=O)CCC(F)(F)F)cccn4n3)cn2)CC1 (stereo not drawn) [Example 25, 4,4,4-trifluoro-1-[5-[2-[[1-[2-(4-methylpiperazin-1-yl)-2-oxo-ethyl]pyrazol-4-yl]amino]-[1,2,4]triazolo[1,5-a]pyridin-8-yl]-2,5-diazabicyclo[2.2.2]octan-2-yl]butan-1-one] | 0.0364 µM
O=C(Cn1cc(Nc2nc3c(N4CC5CCC(C4)N5C(=O)[C@H]4C[C@H](C(F)(F)F)C4)cccn3n2)cn1)N1CCN(C2CSC2)CC1 [Example 83, 1-[4-(thietan-3-yl)piperazin-1-yl]-2-[4-[[8-[8-[3-(trifluoromethyl)cyclo-butanecarbonyl]-3,8-diazabicyclo[3.2.1]octan-3-yl]-[1,2,4]triazolo[1,5-a]pyridin-2-yl]amino]pyrazol-1-yl]ethanone] | 0.161 µM
CC(C(=O)N1CCN(C)CC1)n1cc(Nc2nc3c(N4CC5CCC(C4)N5C(=O)C4CC(C(F)(F)F)C4)cccn3n2)cn1 (stereo not drawn) [Example 124, 1-(4-methylpiperazin-1-yl)-2-[4-[[8-[8-(3-(trifluoromethyl)-cyclobutanecarbonyl]-3,8-diazabicyclo[3.2.1]octan-3-yl]-[1,2,4]triazolo[1,5-a]pyridin-2-yl]amino]pyrazol-1-yl]propan-1-one] | 0.175 µM
CN1CCN(C(=O)Cn2cc(Nc3nc4c(N5CC6CCC(C5)N6Cc5ccc(C#N)cc5)cccn4n3)cn2)CC1 [Example 56, 4-[[3-[2-[[1-[2-(4-methylpiperazin-1-yl)-2-oxo-ethyl]pyrazol-4-yl]amino]-[1,2,4]triazolo[1,5-a]pyridin-8-yl]-3,8-diazabicyclo[3.2.1]octan-8-yl]methyl]benzonitrile] | 0.651 µM
CN1CCN(C(=O)Cn2cc(Nc3nc4c(N5CC6CCC(C5)N6C(=O)Cc5ccccc5F)cccn4n3)cn2)CC1 [Example 64, 2-(2-fluorophenyl)-1-[3-[2-[[1-[2-(4-methylpiperazin-1-yl)-2-oxo-ethyl]pyrazol-4-yl]amino]-[1,2,4]triazolo[1,5-a]pyridin-8-yl]-3,8-diazabicyclo[3.2.1]octan-8-yl]ethanone] | 0.0534 µM
CN1CCN(C(=O)Cn2cc(Nc3nc4c(N5C[C@H]6CC[C@@H](C5)[C@@H]6OCc5ccncc5)cccn4n3)cn2)CC1 [Example 189, 1-(4-methylpiperazin-1-yl)-2-(4-((8-((1R,5 S,8s)-8-(pyridin-4-ylmethoxy)-3-azabicyclo[3.2.1]octan-3-yl)-[1,2,4]triazolo[1,5-a]pyridin-2-yl)amino)-1H-pyrazol-1-yl)ethanone] | 0.0858 µM
CSc1cccc(S(=O)(=O)N2C3CCC2CN(c2cccn4nc(Nc5cnn(CC(=O)N6CCN(C)CC6)c5)nc24)C3)c1 [Example 169, 1-(4-methylpiperazin-1-yl)-2-[4-[[8-[8-(3-methylsulfanylphenyl)sulfonyl-3,8-diazabicyclo[3.2.1]octan-3-yl]-[1,2,4]triazolo[1,5-a]pyridin-2-yl]amino]pyrazol-1-yl]ethanone] | 0.0312 µM
CN1CCN(C(=O)Cn2cc(Nc3nc4c(N5CC6CCC(C5)N6S(=O)(=O)Cc5ccc(C(F)(F)F)cc5)cccn4n3)cn2)CC1 [Example 184, 1-(4-methylpiperazin-1-yl)-2-[4-[[8-[8-([4-(trifluoromethyl)phenyl]methylsulfonyl]-3,8-diazabicyclo[3.2.1]octan-3-yl]-[1,2,4]triazolo[1,5-a]pyridin-2-yl]amino]pyrazol-1-yl]ethanone] | 0.0775 µM
CN1CCN(C(=O)Cn2cc(Nc3nc4c(N5CC6CCC(C5)N6C(=O)c5cncs5)cccn4n3)cn2)CC1 [Example 78, 1-(4-methylpiperazin-1-yl)-2-[4-[[8-[8-(thiazole-5-carbonyl)-3,8-diazabicyclo[3.2.1]octan-3-yl]-[1,2,4]triazolo[1,5-a]pyridin-2-yl]amino]pyrazol-1-yl]ethanone] | 0.0758 µM
CN1CCN(C(=O)Cn2cc(Nc3nc4c(N5C[C@H]6CC[C@@H](C5)[C@H]6N(C)CCC(F)(F)F)cccn4n3)cn2)CC1 [Example 127, 1-(4-methylpiperazin-1-yl)-2-[4-[[8-[(1S,5R)-8-[methyl(3,3,3-trifluoropropyl)amino]-3-azabicyclo[3.2.1]octan-3-yl]-[1,2,4]triazolo[1,5-a]pyridin-2-yl]amino]pyrazol-1-yl]ethanone] | 0.18 µM
CN1CCN(C(=O)Cn2cc(Nc3nc4c(N5CC6CCC(C5)N6S(=O)(=O)c5ccc(Cl)cc5F)cccn4n3)cn2)CC1 [Example 136, 2-[4-[[8-[8-(4-chloro-2-fluoro-phenyl)sulfonyl-3,8-diazabicyclo[3.2.1]octan-3-yl]-[1,2,4]triazolo[1,5-a]pyridin-2-yl]amino]pyrazol-1-yl]-1-(4-methylpiperazin-1-yl)ethanone] | 0.037 µM
CC(F)(F)CNC1CCN(C(=O)Cn2cc(Nc3nc4c(N5CC6CCC(C5)N6C(=O)N5CC(C(F)(F)F)C5)cccn4n3)cn2)CC1 [Example 120, 1-[4-(2,2-difluoropropylamino)-1-piperidyl]-2-[4-[[8-[8-[3-(trifluoromethyl)azetidine-1-carbonyl]-3,8-diazabicyclo[3.2.1]octan-3-yl]-[1,2,4]triazolo[1,5-a]pyridin-2-yl]amino]pyrazol-1-yl]ethanone] | 0.0758 µM
CN1CCN(C(=O)Cn2cc(Nc3nc4c(N5CC6CCC(C5)N6CC5(CS(C)(=O)=O)CC5)cccn4n3)cn2)CC1 [Example 109, 1-(4-methylpiperazin-1-yl)-2-[4-[[8-[8-([1-(methylsulfonylmethyl)cyclopropyl]methyl]-3,8-diazabicyclo[3.2.1]octan-3-yl]-[1,2,4]triazolo[1,5-a]pyridin-2-yl]amino]pyrazol-1-yl]ethanone] | > 1 µM
CSc1cccc(C(=O)N2C3CCC2CN(c2cccn4nc(Nc5cnn(CC(=O)N6CCN(C)CC6)c5)nc24)C3)c1 [Example 100, 1-(4-methylpiperazin-1-yl)-2-[4-[[8-[8-(3-methylsulfanylbenzoyl)-3,8-diazabicyclo[3.2.1]octan-3-yl]-[1,2,4]triazolo[1,5-a]pyridin-2-yl]amino]pyrazol-1-yl]ethanone] | 0.109 µM
CN1CCN(C(=O)Cn2cc(Nc3nc4c(N5CC6CCC(C5)N6S(=O)(=O)Cc5ccc(Cl)cc5)cccn4n3)cn2)CC1 [Example 166, 2-[4-[[8-[8-[(4-chlorophenyl)methylsulfonyl]-3,8-diazabicyclo[3.2.1]octan-3-yl]-[1,2,4]triazolo[1,5-a]pyridin-2-yl]amino]pyrazol-1-yl]-1-(4-methylpiperazin-1-yl)ethanone] | 0.0835 µM
CN1CCN(C(=O)Cn2cc(Nc3nc4c(C5=CC6CCC(C5)N6C(=O)CCC(F)(F)F)cccn4n3)cn2)CC1 (stereo not drawn) [Example 18, 4,4,4-trifluoro-1-[3-[2-[[1-[2-(4-methylpiperazin-1-yl)-2-oxo-ethyl]pyrazol-4-yl]amino]-[1,2,4]triazolo[1,5-a]pyridin-8-yl]-8-azabicyclo[3.2.1]oct-3-en-8-yl]butan-1-one] | 0.278 µM
CN1CCN(C(=O)Cn2cc(Nc3nc4c(N5CC6CCCC(C5)N6C(=O)CCC(F)(F)F)cccn4n3)cn2)CC1 [Example 4, 4,4,4-trifluoro-1-[3-[2-[[1-[2-(4-methylpiperazin-1-yl)-2-oxo-ethyl]pyrazol-4-yl]amino]-[1,2,4]triazolo[1,5-a]pyridin-8-yl]-3,9-diazabicyclo[3.3.1]nonan-9-yl]butan-1-one] | 0.0132 µM
CN1CCN(C(=O)Cn2cc(Nc3nc4c(N5C[C@H]6CC[C@@H](C5)[C@H]6NCCC(F)(F)F)cccn4n3)cn2)CC1 [Example 145, 1-(4-methylpiperazin-1-yl)-2-(4-((8-((1R,5 S,8r)-8-((3,3,3-trifluoropropyl)amino)-3-azabicyclo[3.2.1]octan-3-yl)-[1,2,4]triazolo[1,5-a]pyridin-2-yl)amino)-1H-pyrazol-1-yl)ethanone] | 0.441 µM
CN1CCN(C(=O)Cn2cc(Nc3nc4c(N5CC6CCC(C5)N6C(=O)COC(F)(F)F)cccn4n3)cn2)CC1 [Example 54, 1-(4-methylpiperazin-1-yl)-2-[4-[[8-[8-[2-(trifluoromethoxy)acetyl]-3,8-diazabicyclo[3.2.1]octan-3-yl]-[1,2,4]triazolo[1,5-a]pyridin-2-yl]amino]pyrazol-1-yl]ethanone] | 0.0557 µM
